{"source": "ChEMBL document CHEMBL1125782", "about": "“Structure/activity studies related to 2-(3,4-dichlorophenyl)-N-methyl-N-[2-(1-pyrrolidinyl)-1-substituted- ethyl]acetamides: a novel series of potent and selective kappa-opioid agonists” (1991)"}
{"tested_on": "Mus musculus", "assay": "Antinociceptive activity in acetic acid induced abdominal constriction assay after sc administration and abolished by naloxone administered at 3 mg/kg sc in mice", "settings": "route subcutaneous, Abdomen", "units": {"ED50": "mg/kg"}}
{"smiles": "CNC[C@H](C(C)C)N(C)C(=O)Cc1ccc(Cl)c(Cl)c1", "ED50": "> 10"}
{"smiles": "CC(C)[C@@H](CN1CCCC1)N(C)C(=O)Cc1ccc(C(F)(F)F)cc1", "ED50": 0.07}
{"smiles": "COc1ccc(CC(=O)N(C)[C@H](CN2CCCC2)C(C)C)cc1", "ED50": 3.3}
{"smiles": "CCCN(C(=O)Cc1ccccc1)[C@H](CN1CCCC1)C(C)C", "ED50": "> 10"}
{"smiles": "CCN(C(=O)Cc1ccccc1)[C@H](CN1CCCC1)C(C)C", "ED50": 0.32}
{"smiles": "CC(C)[C@@H](CN(C)C)N(C)C(=O)Cc1ccc(Cl)c(Cl)c1", "ED50": 0.16}
{"smiles": "CC(C)[C@@H](CN1CCCC1)N(C)C(=O)Cc1cccc(Cl)c1", "ED50": 0.33}
{"smiles": "CC(C)[C@@H](CN(C)C(C)C)N(C)C(=O)Cc1ccc(Cl)c(Cl)c1", "ED50": 0.065}
{"smiles": "CC(C)[C@@H](CN1CCCC1)N(C)C(=O)CSc1ccccc1", "ED50": 0.27}
{"smiles": "CCN(CC)C[C@H](C(C)C)N(C)C(=O)Cc1ccc(Cl)c(Cl)c1", "ED50": 1.52}
{"smiles": "CC(C)[C@@H](CN1CCCC1)N(C)C(=O)Cc1ccc(Cl)cc1", "ED50": 0.09}
{"smiles": "CC(C)[C@@H](CN(C)Cc1ccccc1)N(C)C(=O)Cc1ccc(Cl)c(Cl)c1", "ED50": "> 10"}
{"smiles": "CC(C)[C@@H](CN1CCCC1)N(C)C(=O)Cc1ccc([N+](=O)[O-])cc1", "ED50": 0.3}
{"smiles": "CC(C)[C@@H](CN1CCCC1)N(C)C(=O)COc1ccccc1", "ED50": 0.13}
{"smiles": "CC(C)[C@@H](CN1CCCC1)N(C)C(=O)Cc1ccc(C#N)cc1", "ED50": 0.84}
{"smiles": "CC(C)[C@@H](CN1CCCC1)N(C)C(=O)Cc1ccc(F)c(F)c1", "ED50": 0.23}
{"smiles": "CC(C)[C@@H](CN1CCCC1)NC(=O)Cc1ccccc1", "ED50": 1.3}
{"smiles": "CCCN(C)C[C@H](C(C)C)N(C)C(=O)Cc1ccc(Cl)c(Cl)c1", "ED50": 0.58}
{"smiles": "CC(C)[C@@H](CN1CCCC1)N(C)C(=O)Cc1ccccc1", "ED50": 10}
